# Assay results taken from patent US20090118167A1, “Selective Vpac2 Receptor Peptide Agonists” (Eli Lilly and Company Patent Division, priority 2004, published 2009).
# T1: rat VPAC2 receptor (rat, UniProt P35000 23-437)
# T1 sequence (looked up): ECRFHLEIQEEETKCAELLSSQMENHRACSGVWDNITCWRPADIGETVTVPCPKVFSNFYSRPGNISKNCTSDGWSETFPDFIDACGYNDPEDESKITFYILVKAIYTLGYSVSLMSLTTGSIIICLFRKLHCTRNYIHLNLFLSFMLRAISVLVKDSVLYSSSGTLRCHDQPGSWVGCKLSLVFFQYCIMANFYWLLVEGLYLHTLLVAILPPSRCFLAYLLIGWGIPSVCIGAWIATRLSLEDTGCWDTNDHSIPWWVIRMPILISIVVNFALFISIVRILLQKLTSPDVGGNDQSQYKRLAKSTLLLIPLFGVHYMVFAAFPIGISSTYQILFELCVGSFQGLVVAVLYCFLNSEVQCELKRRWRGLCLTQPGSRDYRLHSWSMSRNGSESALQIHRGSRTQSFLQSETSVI
# Target: T1, rat VPAC2 receptor
# Assay: cell-based or functional assay
binder,measurement,value
HSDAVFTDNYTRLRKQMAVKKYLNSILN (not fully specified) [VIP (vasoactive intestinal peptide)],"EC50 for cAMP generation, DiscoveRx, CHO-PO cells",0.79 nM
